Experimental data as given in patent US10195239B2, “Extract of Trigonella foenum-graecum” (dated 2019).

Experiment: Removal of malodour from shoes, soles and urine stains
Conditions: washing the stains

chlorine
removal of malodour of urine stains (dog urine) on concrete: no successful removal of the malodour
